Reference: ChEMBL document CHEMBL1149647, “Structure-based design of TACE selective inhibitors: manipulations in the S1'-S3' pocket” (Bioorg Med Chem, 2007)

Biological target: Collagenase 3 (Homo sapiens, UniProt P45452)
Experiment: Inhibition of human recombinant MMP13
Outline: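 Enzyme potency is expressed as IC50 in nM, reported as average ± SD.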

IC50: 2.4 nM
Compound: CC#CCOc1ccc(S(=O)(=O)N2CCSC(C)(C)[C@@H]2C(=O)NO)cc1
